Laboratory results as given in ChEMBL document CHEMBL2176912, “Diphenyl purine derivatives as peripherally selective cannabinoid receptor 1 antagonists” (J Med Chem, 2012).

Chains of the proteins cited; added tags and fusions are not shown.
UniProt P21554, whole entry: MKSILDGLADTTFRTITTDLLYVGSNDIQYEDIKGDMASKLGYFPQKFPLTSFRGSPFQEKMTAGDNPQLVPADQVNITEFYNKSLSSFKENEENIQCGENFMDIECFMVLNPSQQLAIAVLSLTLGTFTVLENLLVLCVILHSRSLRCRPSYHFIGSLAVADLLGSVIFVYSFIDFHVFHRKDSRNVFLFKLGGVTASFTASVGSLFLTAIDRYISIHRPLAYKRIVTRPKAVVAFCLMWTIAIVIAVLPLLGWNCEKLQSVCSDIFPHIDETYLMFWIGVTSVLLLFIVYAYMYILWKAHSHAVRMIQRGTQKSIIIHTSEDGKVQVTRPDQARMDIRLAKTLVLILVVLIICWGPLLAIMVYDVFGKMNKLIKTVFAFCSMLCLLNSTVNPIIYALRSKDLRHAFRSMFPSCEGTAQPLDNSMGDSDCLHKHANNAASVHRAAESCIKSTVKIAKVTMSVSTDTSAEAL

Tests used:
[1] = test system: CHO-K1; assay: Selectivity ratio of Ki for human CB2 receptor expressed in CHO-K1 cells to Ki for human CB1 receptor expressed in CHO-K1 cells
[2] = biological target: Cannabinoid receptor 1 (Homo sapiens, UniProt P21554); assay: Antagonist activity at human CB1 receptor transfected in CHO-K1 cells co-expressing Galphaq16 assessed as intracellular calcium mobilization using Calcein-4 AM by fluorescence assay; assay type: functional, cell-based
Procedure, shortened: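 CHO-K1 cells engineered to coexpress human CB1 and Gαq16. Calcium flux read with fluorescent dye Calcein-4 AM on a plate reader. Antagonism measured as rightward shift of the CP55940 concentration–response curve. Ke = [ligand]/(DR−1), where DR is the ratio of CP55940 EC50 with and without test agent. Values are averages of 3–6 measurements.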

| Ke [2] | Compound | Ratio Ki [1] |
| --- | --- | --- |
|  | CCCCNC(=O)NC1(c2ccccc2)CCN(c2ncnc3c2nc(-c2ccccc2Cl)n3-c2ccc(Cl)cc2)CC1 | > 74 |
| 8.7 nM | CCNC1(C(N)=O)CCN(c2ncnc3c2nc(-c2ccccc2Cl)n3-c2ccc(Cl)cc2)CC1 [OTENABANT] |  |
